# Measured affinities in a library of Ab-14 heavy chain variants

Reference: Li et al. 2023, doi:10.1038/s41467-023-39022-2. File: FLAb, binding data.

All variants were tested on one target, the spike HR2 peptide PDVDLGDISGINAS (SARS-CoV-2).

Ab-14 is the parent antibody, in scFv form: VH, then a 15-residue (Gly4Ser)3 linker, then VL. The light chain is unchanged in all variants.
VH: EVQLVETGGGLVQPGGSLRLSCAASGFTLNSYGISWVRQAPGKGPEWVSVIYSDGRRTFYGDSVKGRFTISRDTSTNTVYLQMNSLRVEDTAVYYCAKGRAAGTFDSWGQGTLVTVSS
VL: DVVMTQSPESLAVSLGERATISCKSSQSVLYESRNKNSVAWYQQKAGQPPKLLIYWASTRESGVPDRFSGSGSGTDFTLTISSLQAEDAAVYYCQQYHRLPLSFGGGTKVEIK

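The starting antibody came from a phage panning campaign against this peptide. The variants were designed computationally from a first round of random CDR variants and then made and measured. Their group label is 14H_En_Gen (En: ensemble of fine-tuned language models; Gen: genetic algorithm). The assay is AlphaSeq: two haploid yeast populations carry antibody and antigen on their surface. After mating in shaken culture at 30 °C for 16 h, diploids were selected and their barcode pairs sequenced. Read counts were normalised to the haploid input and turned into Kd by a linear fit to BCL2-family pairs of known affinity, for each replicate. Each pool was mated in six replicate cultures.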

Each variant is given by its three heavy chain CDRs, as the data file delimits them; those of the parent are GFTLNSYGIS, VIYSDGRRTFYGDSVK, GRAAGTFDS. Numbers give log10(Kd / nM), so 0 is 1 nM and 3 is 1 µM. Smaller is tighter. "ND" means that the variant was in the library but no mating with the target was seen in that replicate; the authors take this as a sign of poor binding, and no number exists. The parent sequence was in this pool as ten entries: three were never detected, three once, and four in most replicates, with averages from 0.34 to 2.37. Background: pairings of all heavy chain designs with three empty control strains gave a value in 1% of cases (median 2.08, 5th percentile 0.84). Values in that range, when seen in few replicates, are hard to tell from nonspecific mating. Also given: how often the same scFv was detected with the empty control strains, with their mean in brackets. Values of this round are not directly comparable with the first-round values of the same sequences. The authors averaged sequences with at least three values out of six and counted those with two or fewer as poor binders.

CDR-H1 | CDR-H2 | CDR-H3 | replicates, log10 nM | control signals
GFDLNEYGIS | VIYADGMRTAYTDSVK | GENAGTFDL | ND 2.02 ND ND 0.75 ND | 0 of 18
GFDLNEYGIS | VIYADGMRTAYTDSVK | GNNAGTFDV | -0.41 -0.42 -0.51 -0.54 -0.75 -0.64 | 0 of 18
GFSLDEYGIS | VIYADGMRTAYADSVK | GEVAGTFDV | 0.46 -0.84 -0.94 0.14 0.11 -0.09 | 0 of 18
GFDLNEYGIS | VIYADGVRTYYADSVK | GNNAGTFDI | -0.71 -0.63 -0.85 -1.39 -0.75 -0.48 | 0 of 18
GFDLNEYGIS | VIYADGMRTYYADSVK | GNEAGTFDI | -0.11 -0.40 -0.19 0.05 -0.24 0.44 | 0 of 18
GFDLNEYGIS | VIYADGMRTAYADNVK | GETAGTFDT | -0.34 -0.35 -0.14 -0.35 -0.85 -1.12 | 0 of 18
GFDLNEYGIS | VIYADGMRTAYSDSVK | GQNAGTFDT | -0.52 -0.30 -0.68 -0.39 0.18 -0.77 | 0 of 18
GFDLEDYGIS | VIYADGMRTAYADSVK | GQVAGTFDV | -0.75 -1.04 -0.63 -0.71 -1.32 -1.11 | 0 of 18
GFDLDEYGIS | VIYADGMRTAYTDSVK | GTNAGTFDV | -0.81 -1.17 -1.23 -1.07 -0.70 -0.90 | 0 of 18
GFDLNEYGIS | VIYADGVRTSYSDSVK | GNVAGTFDV | 0.12 -0.75 -0.33 -0.29 -0.21 -0.58 | 0 of 18
GFDLNEYGIS | VIYADGRRTAYADNVK | GEVAGTFDV | -0.55 -0.80 0.27 -0.93 -1.20 -0.44 | 0 of 18
GFDLDEYGIS | VIYADGSRTAYADDVK | GNVAGTFDV | -0.19 -0.59 0.74 -0.22 -0.65 1.21 | 0 of 18
GFDLDEYGIS | VIYADGMRKAYADSVK | GTNAGTFDV | -0.35 -0.65 -1.02 -1.09 -0.68 -0.64 | 0 of 18
GFDLNEYGIS | VIYADGKRTAYADNVK | GEVAGTFDI | -0.10 -0.36 -0.54 -0.30 -0.39 -0.51 | 1 of 18 (3.24)
GFDLNEYGIS | VIYADGVRTAYVDSVK | GNNAGTFDM | -0.89 -0.06 -0.38 -0.80 -0.88 -0.49 | 0 of 18
GFDLNEYGIS | VIYADGQRTAYTDSVK | GNVAGTFDV | -0.76 -1.03 -0.97 -0.98 -0.66 -0.72 | 0 of 18
GFDLNEYGIS | VIYADGSRTAYANSVK | GEVAGTFDV | -0.67 -0.74 -0.84 -0.79 -0.03 -0.81 | 0 of 18
GFDLNEYGIS | VIYADGKRTAYADSVK | GQVAGTFDQ | -0.16 -0.64 -0.68 -0.86 -0.57 -0.62 | 0 of 18
GFDLDEYGIS | VIYADGMRTVYADSVK | GENAGTFDM | -0.25 -0.36 -0.78 -0.77 -0.61 -0.24 | 0 of 18
GFDLDEYGIS | VIYADGMRTAYSDSVK | GANAGTFDV | -0.55 -0.81 -0.54 -0.81 -0.72 -0.54 | 0 of 18
GFDLNEYGIS | VIYADGMRTAYKDSVK | GNVAGTFDL | -0.38 -0.45 -0.83 -0.99 -0.58 -0.49 | 0 of 18
GFDLNEYGIS | VIYADGKRTAYADSVK | GQVAGTFDT | -0.60 -0.79 -0.58 -0.67 -0.58 -0.50 | 0 of 18
GFDLNEYGIS | VIYADGSRTVYADSVK | GNNAGTFDV | -0.19 -0.27 0.25 -0.21 0.00 -0.34 | 0 of 18
GFDLNEYGIS | VIYADGVRTAYADDVK | GGNAGTFDV | ND 0.11 -0.72 -0.37 0.88 -0.41 | 0 of 18
GFDLDEYGIS | VIYADGVRTAYSDDVK | GENAGTFDV | 0.02 0.60 -0.17 -0.12 0.16 0.10 | 0 of 18
GFNLDEYGIS | VIYADGMRTAYADSVK | GNVAGTFDV | -0.88 -0.34 -0.49 -0.51 -0.55 -0.45 | 0 of 18
GFDLNEYGIS | VIYADGMRTAYSNSVK | GEVAGTFDV | -0.28 -0.93 -1.05 -1.31 -0.31 -0.54 | 0 of 18
GFDLNEYGIS | VIYADGRRQAYADSVK | GNNAGTFDV | -0.01 -0.02 -0.44 -0.38 -0.44 -0.29 | 1 of 18 (2.48)
GFDLDEYGIS | VIYADGMRTFYADSVK | GNNAGTFDI | 0.50 -0.16 -0.20 -0.17 0.11 0.17 | 0 of 18
GFDLNEYGIS | VIYADGVRTAYADNVK | GNEAGTFDV | -0.18 0.63 -0.30 0.27 0.33 0.14 | 0 of 18
GFDLNEYGIS | VIYADGMRTAYVDNVK | GNVAGTFDI | ND ND 1.21 ND 1.80 1.00 | 0 of 18
GFDLNEYGIS | VIYADGMRTSYADNVK | GNVAGTFDV | -0.21 0.06 -0.39 -0.60 -0.10 -0.50 | 0 of 18
GFDLNEYGIS | VIYADGVRTAYTDNVK | GNVAGTFDV | -0.48 -0.25 -0.71 -0.01 -0.75 -0.40 | 0 of 18
GFDLNEYGIS | VIYADGMRTAYADSVK | GNHAGTFDI | 0.02 0.20 -0.09 0.40 0.04 -0.42 | 0 of 18
GFDLDEYGIS | VIYADGRRTAYADNVK | GNVAGTFDV | -0.35 -0.39 -0.48 -0.48 -0.31 -0.20 | 0 of 18
GFDLDEYGIS | VIYADGRRTAYTDSVK | GEVAGTFDL | -0.64 -0.64 -0.32 -0.56 -0.81 -0.45 | 0 of 18
GFDLNEYGIS | VIYADGMRTAYADSVK | GETAGTFDV | -0.11 -0.41 -0.65 -0.31 0.40 -0.12 | 0 of 18
GFDLDEYGIS | VIYADGRRTAYIDSVK | GNVAGTFDV | 0.38 -0.19 0.22 0.54 0.05 1.07 | 0 of 18

5 of these entries, quoted again:

CDR-H1	CDR-H2	CDR-H3	replicates, log10 nM	control signals
GFDLEDYGIS	VIYADGMRTAYADSVK	GQVAGTFDV	-0.75 -1.04 -0.63 -0.71 -1.32 -1.11	0 of 18
GFDLDEYGIS	VIYADGRRTAYTDSVK	GEVAGTFDL	-0.64 -0.64 -0.32 -0.56 -0.81 -0.45	0 of 18
GFDLDEYGIS	VIYADGMRTFYADSVK	GNNAGTFDI	0.50 -0.16 -0.20 -0.17 0.11 0.17	0 of 18
GFDLNEYGIS	VIYADGVRTAYADDVK	GGNAGTFDV	ND 0.11 -0.72 -0.37 0.88 -0.41	0 of 18
GFDLNEYGIS	VIYADGRRQAYADSVK	GNNAGTFDV	-0.01 -0.02 -0.44 -0.38 -0.44 -0.29	1 of 18 (2.48)